In publication PMC9388559 (Angewandte Chemie (International ed. in English), 2022):

Test system: control CNiFER (clone #128C3)
Experiment: Control CNiFER
Assay type: cell-based
Settings: highest concentration, 1000 nM (Figure 1L)

FRET response of control CNiFERs: small response
Structure (SMILES): CC(=O)OCC[N+](C)(C)C [ACh, acetylcholine]
